Data published in patent EP1016405A2, “Arylating medicaments” (Radopath Pharmaceuticals International Limited, priority 1993, dated 1994).
Marks after values point to notes of the source that are not given here.

Tested on: MAC15A (murine adenocarcinoma colon)
Experiment: Anti-tumour activity against MAC15A ascites tumour, survival T/C%
Type: in vivo, mice
Details: median survival, test vs solvent control, 100 mg kg^-1 ip per day

Compound: O=[N+]([O-])c1cc([N+](=O)[O-])c(S(=O)(=O)O)c([N+](=O)[O-])c1
- T/C% (schedule days 1,2,3,4,5): 188%

Compound: O=[N+]([O-])c1ccc([N+](=O)[O-])cc1
- T/C% (schedule days 1,2): 200%

Compound: 1-flouro-2,4-dinitrobenzene
- T/C% (schedule day 1): 62.5^b %
